Earlier results, collected in patent publication US20070116643A1, “Novel aryloxypropanamines” (Concert Pharmaceuticals Inc., priority 2005, published 2007).

Experiments:
[1] = tested on: immobility in forced swim test; details: forced swim test animal model
[2] = in humans

CNCC[C@H](Oc1cccc2ccccc12)c1cccs1 [Compound A, (S)-N-methyl-3-(naphthalen-1-yloxy)-3-(thiophen-2-yl)propan-1-amine hydrochloride]
attenuation of immobility [1]: potent attenuation of immobility | antidepressant activity [2]: potent antidepressant activity

Structures can show the parent of a compound that is named as a salt.
